Details: RP-HPLC, up to 48 h

Semaglutide
degradation in human serum: almost no sign of degradation up to 48 h

Reference: US20250092111A1, “POTENT AND STABLE POLYPEPTIDE ANALOGUES VIA SERINE/THREONINE LIGATION” (UNIVERSITY OF WASHINGTON, priority 2022, published 2025)
